Compound activity deposited in PubChem by Broad Institute.
ERAP1 inh – ERAP1 (human) enzyme inhibition; Q9NZ08; recombinant ERAP1, Leu-AMC fluorescence, 60 min; inhibition, % at 10.7 µM; hit rate 0.15% among 340,000; AID 652197;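 active = mean replicate inhibition of at least 30%, or all replicates individually reaching that 30% level; inactive = mean below 30% and not every replicate reaching it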
ARNT-TACC3 inh – disruptors of human ARNT/TACC3 interaction | Q9Y6A5 | AlphaScreen His-ARNT PAS-B/GST-TACC3 binding, luminescence; TACC3 fragment carries E629A point mutation | inhibition, % at 9.99 µM | hit rate 0.66% among 390,000;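 active = mean inhibition of replicates at least 50% and at least half of replicates each reaching 50%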
S100A4 MyoIIA – blocks human S100A4 binding to myosin IIA peptide | hit rate 0.14% among 360,000 | P26447 | inhibition, % at 10.7 µM | S100A4/TAMRA-MyoIIA peptide fluorescence polarization;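 active = mean inhibition of at least 70% across replicates, with every replicate also reaching that level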
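Material: human S100A4 monomer with TAMRA-labelled myosin IIA peptide; buffer or medium: HEPES pH 7.2 with CaCl2, KCl, NaCl, DTT, Triton; compound dosing: one concentration per compound; schedule: 5 min incubation before reading; benchmarks: neutral control DMSO, positive control TFP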
E-sel inducer – induces E-selectin expression in human endothelial cells. HUVEC E-selectin immunofluorescence imaging; normalized: neutral wells 0, TNF-alpha wells 100. activation, % at 7.58 µM. hit rate 0.37% among 260,000. AID 686992;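 active = mean E-selectin-positive cell signal at least 10% of the positive control, reached in at least 60% of replicates, without over 20% cell loss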
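System: HUVEC / Compound: single concentration / Signal: immunofluorescence imaging / Read-out: percent E-selectin-positive cells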
AF4-AF9 inh – MLL-AF4/AF9 protein interaction inhibition; hit rate 0.47% among 350,000; P42568; AlphaScreen, biotin-AF4 peptide binding to FLAG-AF9; inhibition, % at 10 µM;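 active = every replicate reaching a set inhibition limit, whatever the replicate mean, cut at about 25% in these data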
UUG fidelity – yeast start codon fidelity modulation | S. cerevisiae UUG-firefly luciferase reporter, luminescence/redox ratio | activity score, % at 18.7 µM | 350,000 tested, 0.13% active;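 active = replicate mean at a twofold rise or more, about +100% in these data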;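 also: firefly luciferase made from a UUG start codon reports start codon fidelity; reporter light over untreated wells divided by growth signal over untreated wells; some hits fall short of that in this replicate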
Of the large screens only hits and unclear results are named; the others gave an inactive call; ! = repeats disagree. Sampled rows, rich in hits. Any-hit rate of the full collection: about 1.3%.

CCc1cccc(NC(=O)O[C@H]2[C@H](OC(=O)Nc3ccc4c(c3)OCO4)[C@@H](OC(=O)Nc3ccc4c(c3)OCO4)[C@@H](OC)O[C@@H]2CO)c1	none (no result: E-sel inducer)
CCNS(=O)(=O)c1ccc(NC(=S)N2CCc3ccccc32)cc1	ARNT-TACC3 inh 53 (no result: E-sel inducer)
CC(=O)Nc1ccc(S(=O)(=O)NCC(=O)OCC(=O)N2CCc3ccccc32)cc1	none (no result: ERAP1 inh, S100A4 MyoIIA, E-sel inducer, AF4-AF9 inh)
O=C(C[C@@H]1C=C[C@H](NC(=O)Nc2ccc3c(c2)OCO3)[C@@H](CO)O1)NCc1ccc(F)cc1	none
COc1ccccc1P(=O)(Cc1ccccc1[N+](=O)[O-])c1ccccc1 (stereo not drawn)	E-sel inducer 59 (no result: ARNT-TACC3 inh, UUG fidelity)
CC(C)n1c(SCc2ccccc2F)nc2c1c(=O)n(C)c(=O)n2C	none (no result: E-sel inducer)
COc1ccccc1CSc1nc2c(c(=O)n(C)c(=O)n2C)n1C	E-sel inducer 48
CCC(C)NC(=O)CN1C(=O)c2cccc3cccc1c23 (stereo not drawn)	none (no result: E-sel inducer)
CCN1/C(=N\N)c2cccc3cccc1c23	E-sel inducer 37 (no result: UUG fidelity)
COc1ccc(C2=NN(CCC(=O)NC3CCC(C)CC3)C(=O)CC2)cc1 (stereo not drawn)	S100A4 MyoIIA 88 (no result: E-sel inducer)
O=C(C[C@H]1C[C@@H]2c3cc(NC(=O)C4CCC4)ccc3O[C@@H]2[C@@H](CO)O1)NCC1CC1	none
O=S(=O)(NN1CCOCC1)c1cc(Cl)cc(Cl)c1O	ERAP1 inh 37
CC=Cc1ccc2n(c1=O)C[C@H]1[C@H](CO)[C@@H](C(=O)NCCCN3CCOCC3)N(C)[C@@H]21 (mixture of isomers)	none (no result: UUG fidelity)
CN(C(=O)CSc1nnc(-c2ccncc2)n1-c1ccccc1)C1CCS(=O)(=O)C1 (stereo not drawn)	none (no result: E-sel inducer)
CC(c1nnc(SCC(=O)N(C)C2CCS(=O)(=O)C2)n1-c1ccccc1)N(C)C (stereo not drawn)	AF4-AF9 inh 34 (no result: E-sel inducer)
C=CCOc1ccc(/C=C2\SC(=S)N(C(C(=O)O)c3ccccc3)C2=O)cc1 (stereo not drawn)	ERAP1 inh 34 (no result: UUG fidelity)
O=C(O)C(Cc1ccccc1)N1C(=O)/C(=C/c2cccs2)SC1=S (stereo not drawn)	none (no result: E-sel inducer, UUG fidelity)
CC(/C=C1\SC(=S)N(CC(=O)O)C1=O)=C\c1ccccc1	none (no result: UUG fidelity)
CC(/C=C1\SC(=S)N(C(C(=O)O)c2ccccc2)C1=O)=C\c1ccccc1 (stereo not drawn)	ERAP1 inh 30 (no result: UUG fidelity)
O=C(O)C(c1ccccc1)N1C(=O)/C(=C/c2cccs2)SC1=S (stereo not drawn)	ARNT-TACC3 inh 65 (no result: E-sel inducer, UUG fidelity)
C[C@@H]1CCCCO[C@H](CN(C)C(=O)C2CCCCC2)[C@@H](C)CN([C@H](C)CO)C(=O)c2cc(NC(=O)Nc3ccc(C(F)(F)F)cc3)ccc2O1	none
COc1cccc(-c2ocnc2C(=O)Nc2ccc(N3CCOCC3)cc2N2CCOCC2)c1	AF4-AF9 inh 35
CN(C)CC(=O)N[C@@H]1CC[C@@H](CCNS(=O)(=O)c2ccccc2)O[C@H]1CO	none
N=C(N)SCc1ncccc1O	ARNT-TACC3 inh 50
COc1cccc(/C=N/Nc2nnc(C)n2N)c1O	ARNT-TACC3 inh 58 (no result: E-sel inducer)
COc1cccc(/C=N/Nc2cc(N3CCOCC3)ncn2)c1O	ARNT-TACC3 inh 49
C[C@@H]1CN([C@@H](C)CO)S(=O)(=O)c2ccc(C#C[C@@H](C)O)cc2O[C@@H]1CN(C)C(=O)C1CCCCC1	none (no result: E-sel inducer)
CN1CCN(CCCN2c3ccccc3Sc3ccc(C(F)(F)F)cc32)CC1	AF4-AF9 inh 27!
CC(=O)N(C)C[C@H]1[C@@H](c2ccc(-c3cccc(C#N)c3)cc2)[C@@H](CO)N1C(C)=O	none (no result: ERAP1 inh, ARNT-TACC3 inh, S100A4 MyoIIA, AF4-AF9 inh, UUG fidelity)
O=C(c1cc(C(=O)N2CCOCC2)c2nc3ccccc3n2c1)c1cc(Cl)cc(Cl)c1O	AF4-AF9 inh 27 (no result: ERAP1 inh, UUG fidelity)
CCc1c(C)sc2nc3c(C(=O)N4CCOCC4)cc(C(=O)c4ccccc4O)cn3c(=O)c12	none (no result: E-sel inducer)
C[C@H]1CN([C@@H](C)CO)C(=O)CCCn2cc(nn2)CO[C@H]1CN(C)C(=O)Nc1ccccc1C(F)(F)F	none (no result: ERAP1 inh, ARNT-TACC3 inh, S100A4 MyoIIA, AF4-AF9 inh, UUG fidelity)
Cc1c(Cl)cccc1NC(=S)N(CCN(C)C)C(C)c1ccccn1 (stereo not drawn)	ARNT-TACC3 inh 54 (no result: ERAP1 inh)
